# Results published in ChEMBL document CHEMBL5029184, “Colloidal Aggregators in Biochemical SARS-CoV-2 Repurposing Screens” (J Med Chem, 2021).
# Species: Sus scrofa
# Assay: Inhibition of porcine heart malate dehydrogenase assessed as critical aggregation concentration preincubated for 5 min followed by nicotinamide adenine dinucleotide addition and monitered for 90 sec by spectrophotometric method
# Type: tissue-based
row,Compound,CAC [µM]
1,O=C1CCc2ccc(OCCCCN3CCN(c4cccc(Cl)c4Cl)CC3)cc2N1,15
2,Oc1c(I)cc(Cl)c2cccnc12 [CLIOQUINOL],15
